{
  "source": "patent US10709764B2",
  "about": "“Use of compounds with thrombopoietic activity to promote bone growth and healing” (Osteofuse, Inc., priority 2010, dated 2020)",
  "molecules": {"B1": {"name": "bone morphogenetic protein-2 (protein, UniProt P12643 283-396, looked up)", "Bone morphogenetic protein 2": "QAKHKQRKRLKSSCKRHPLYVDFSDVGWNDWIVAPPGYHAFYCHGECPFPLADHLNSTNHAIVQTLVNSVNSKIPKACCVPTELSAISMLYLDENEKVVLKNYQDMVVEGCGCR"}},
  "tested_on": "critical sized femoral defect",
  "experiment": "Mouse critical sized femoral defect with scaffold, x-ray follow-up",
  "format": "in vivo, C57BL/6 male mice",
  "conditions": "2 weeks postoperatively; TPO 1 μg, BMP-2 4 μg in scaffold",
  "from_the_text": "While it is thought that BMP-2 works by activating osteoblasts, successful fracture repair requires remodeling and thus requires elevated osteoclast activity as well. Therefore, isolated increases in osteoblastic activity without up-regulation of osteoclastic remodeling may increase the incidence of heterotopic bone which has been reported as a complication with BMP treatment. […] A critical sized femoral defect was created in the right femur of ten-week old C57BL/6 male mice. Our scaffold was inserted into the defect site. There were 3 groups: untreated controls (n=7), TPO treated scaffolds (1 μg, n=8), and BMP-2 treated scaffolds (4 μg, n=5). […] Referring now to FIG. 6, a critical sized femoral defect was created in the right femur of ten week old C57BL/6 male mice. A scaffold was inserted into the defect site. There were 3 groups untreated controls (n=7), TPO treated scaffolds (1 μg, n=8), and BMP-2 treated scaffolds (4 μg, n=5).",
  "data": [
    {"molecule": "B1", "values": [
      {"measurement": "bridging callus formation (x-ray)", "result": "bridging callus formation by 2 weeks"}
    ]}
  ]
}
